Biological target: T1, Flag-USP10-U1 ([…]aa) from HEK293T cells
T1 construct: USP10, […] (Flag-USP10-U1, plasmid from Gene Chem / Gene-Pharma); The results name HEK293FT cells, the legend and methods HEK293T cells; also called FLAG-tagged USP10; source: HEK293T, transfected: purified (pull-down) and in lysate (co-IP)
Assay: pull-down; purified Flag-USP10 incubated with separately purified HA-GSK3β (both from HEK293T cells) at 4 °C with rotation overnight; beads rinsed four times with RIPA buffer; beads probed with anti-Flag antibody
Details: both partners purified

B1: HA-GSK3β-G1 (1-420aa) from HEK293T cells (enzyme, UniProt P49841 1-420, looked up)
chain: MSGRPRTTSFAESCKPVQQPSAFGSMKVSRDKDGSKVTTVVATPGQGPDRPQEVSYTDTKVIGNGSFGVVYQAKLCDSGELVAIKKVLQDKRFKNRELQIMRKLDHCNIVRLRYFFYSSGEKKDEVYLNLVLDYVPETVYRVARHYSRAKQTLPVIYVKLYMYQLFRSLAYIHSFGICHRDIKPQNLLLDPDTAVLKLCDFGSAKQLVRGEPNVSYICSRYYRAPELIFGATDYTSSIDVWSAGCVLAELLLGQPIFPGDSGVDQLVEIIKVLGTPTREQIREMNPNYTEFKFPQIKAHPWTKVFRPRTPPEAIALCSRLLEYTPTARLTPLEACAHSFFDELRDPNVKLPNGRDTPALFNFTTQELSSNPPLATILIPPHARIQAAASTPTNATAASDANTGDRGQTNNAASASASNST
notes: GSK3β, residues 1-420 (HA-GSK3β-G1, plasmid from Gene Chem / Gene-Pharma); The results name HEK293FT cells, the legend and methods HEK293T cells; also called HA-tagged GSK3β; source: HEK293T, transfected: purified (pull-down) and in lysate (co-IP)
  binding result: binds
